Patent publication US20230174526A1, “BENZOTHIAZOLYL BIARYL COMPOUND, AND PREPARATION METHOD AND USE” (SHANGHAI RINGENE BIOPHARMA CO., LTD., priority 2020, published 2023)

Protein sequences, listed by entry. Tags and fused reporters are not part of them. Residues count along the entry.
UniProt P01116, 1-188 isoform 2 G12C: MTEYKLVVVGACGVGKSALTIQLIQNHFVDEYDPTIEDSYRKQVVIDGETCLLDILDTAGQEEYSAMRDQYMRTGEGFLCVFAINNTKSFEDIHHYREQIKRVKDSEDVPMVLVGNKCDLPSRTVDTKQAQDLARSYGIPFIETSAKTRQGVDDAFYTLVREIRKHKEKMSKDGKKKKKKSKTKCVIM

Key:
KRAS^G12C/SOS1 = KRAS^G12C/SOS1 (Homo sapiens, UniProt P01116, G12C); experiment: KRAS^G12C/SOS1 protein-protein interaction Binding assay (CisBio kit); conditions: read-out: IC50/nM, class symbols
[1] = system: MiaPaca-2 cells (pancreatic cancer); experiment: Proliferation test method 1 (2D, MTT), MiaPaca-2; conditions: read-out: IC50/nM proliferation inhibitory activity on MiaPaca-2 cells, 5-7 days
[2] = Metabolic stability assay, rat liver microsomes; conditions: rat liver microsomes 0.5 mg/mL, 1 µM compound
Experimental: (§1) Metabolic stability assay: A warm incubation for metabolic stability was performed with a system of 150 µL of liver microsomes (final concentration 0.5 mg/mL) containing NADPH (final concentration 1 mM), 1 µM of the test compound and positive control midazolam or negative control atenolol, and the reaction was terminated with acetonitrile containing tinidazole at 0 min, 5 min, 10 min and 30 min, respectively. The reaction was vortexed for 10 min and centrifuged at 15000 rmp for 10 min, and 50 µL of supernatant was taken into the 96-well plate for sampling. The metabolic stability of the compound was calculated by measuring the relative reduction of the drugs.

[3] = Metabolic stability assay, mouse liver microsomes; conditions: mouse liver microsomes 0.5 mg/mL, 1 µM compound
Experimental: as §1

[4] = Metabolic stability assay, monkey liver microsomes; conditions: monkey liver microsomes 0.5 mg/mL, 1 µM compound
Experimental: as §1

[5] = Metabolic stability assay, human liver microsomes; conditions: human liver microsomes 0.5 mg/mL, 1 µM compound
Experimental: as §1

[6] = In vivo pharmacokinetic parameter testing in mice; conditions: iv(1 mg/kg)

Structure (SMILES): C=CC(=O)N1CCN(c2ncnc3c(F)c(-c4ccc(F)c5sc(N)nc45)c(Cl)cc23)CC1 [Example 31, 7-(2-Amino-7-Fluorobenzo [d] Thiazol-4-yl)-6-Chloro-2-(3-(Dimethylamino)Azetidine-1-yl) -8-Fluoro-4-(4-(2-Fluoroacryloyl)Piperazin-1-yl)Quinolin-3-Cyano]
- IC50 (KRAS^G12C/SOS1): 50 to 200 nM
- IC50 [1]: 2.6 nM
- Liver microsomal stability (T½ /min) Rat [2]: 31 min
- Liver microsomal stability (T½ /min) Mouse [3]: 32 min
- Liver microsomal stability (T½ /min) monkey [4]: 31 min
- Liver microsomal stability (T½ /min) human [5]: 44 min
- Below the curve and AUC0-t [6]: 1.62 ± 0.188 µM·h
- Clearance rate Cl [6]: 21.16 ± 2.36 mL/min/kg
- Half-life T½ [6]: 36 min
